The values that follow are results of earlier work, collected in publication PMC10385865, “Synthesis and Anticancer Activity of Novel Dual Inhibitors of Human Protein Kinases CK2 and PIM-1” (Pharmaceutics, 2023).

The data set deals with CK2. Also on record: method as in PMID 33807474. The conditions noted are these: Figure 1, representative CK2 inhibitors; cited from earlier work.

For the compound `CN(C)c1nc2c(Br)c(Br)c(Br)c(Br)c2[nH]1` [Compound 4, 4,5,6,7-Tetrabromo-N,N-dimethyl-1H-benzimidazol-2-amine, reference compound], the Ki (in general, a dissociation constant, usually derived from enzyme kinetics or from competition with a known ligand) is 40 nM.
